This is an account of results in PMC4457528, “Identification of Novel Small Molecule Inhibitors of Oncogenic RET Kinase” (PLoS ONE, 2015).

Chains of the proteins cited; added tags and fusions are not shown. Residues count along the entry.
UniProt P07949, 29-1072 isoform P07949-2 A883F: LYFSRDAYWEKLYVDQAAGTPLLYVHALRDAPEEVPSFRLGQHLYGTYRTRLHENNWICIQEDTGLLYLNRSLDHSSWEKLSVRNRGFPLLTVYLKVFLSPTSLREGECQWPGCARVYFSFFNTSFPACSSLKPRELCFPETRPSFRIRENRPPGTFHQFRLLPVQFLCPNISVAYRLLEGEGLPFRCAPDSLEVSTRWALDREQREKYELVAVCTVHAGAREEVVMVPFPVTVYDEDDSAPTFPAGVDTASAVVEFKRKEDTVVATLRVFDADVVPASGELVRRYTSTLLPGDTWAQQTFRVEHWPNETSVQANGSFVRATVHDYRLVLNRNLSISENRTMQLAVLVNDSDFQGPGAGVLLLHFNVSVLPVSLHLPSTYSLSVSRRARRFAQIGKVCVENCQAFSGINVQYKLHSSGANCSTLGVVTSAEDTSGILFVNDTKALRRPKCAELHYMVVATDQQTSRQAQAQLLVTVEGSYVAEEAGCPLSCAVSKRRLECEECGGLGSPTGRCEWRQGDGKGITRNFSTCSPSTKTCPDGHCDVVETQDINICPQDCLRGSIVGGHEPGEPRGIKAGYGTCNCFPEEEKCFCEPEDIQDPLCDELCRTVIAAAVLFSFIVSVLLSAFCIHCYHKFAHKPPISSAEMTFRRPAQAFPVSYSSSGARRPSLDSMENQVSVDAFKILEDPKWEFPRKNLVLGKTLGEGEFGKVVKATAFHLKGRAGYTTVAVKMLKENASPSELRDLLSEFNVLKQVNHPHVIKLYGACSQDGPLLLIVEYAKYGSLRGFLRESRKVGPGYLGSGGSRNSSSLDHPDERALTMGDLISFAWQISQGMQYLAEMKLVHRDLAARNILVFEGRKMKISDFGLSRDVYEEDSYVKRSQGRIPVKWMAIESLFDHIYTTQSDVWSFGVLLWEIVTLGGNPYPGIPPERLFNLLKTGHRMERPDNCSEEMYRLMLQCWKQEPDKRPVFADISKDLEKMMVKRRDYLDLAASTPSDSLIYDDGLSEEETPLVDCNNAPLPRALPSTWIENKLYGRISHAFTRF
UniProt P07949, 29-1114 V804L: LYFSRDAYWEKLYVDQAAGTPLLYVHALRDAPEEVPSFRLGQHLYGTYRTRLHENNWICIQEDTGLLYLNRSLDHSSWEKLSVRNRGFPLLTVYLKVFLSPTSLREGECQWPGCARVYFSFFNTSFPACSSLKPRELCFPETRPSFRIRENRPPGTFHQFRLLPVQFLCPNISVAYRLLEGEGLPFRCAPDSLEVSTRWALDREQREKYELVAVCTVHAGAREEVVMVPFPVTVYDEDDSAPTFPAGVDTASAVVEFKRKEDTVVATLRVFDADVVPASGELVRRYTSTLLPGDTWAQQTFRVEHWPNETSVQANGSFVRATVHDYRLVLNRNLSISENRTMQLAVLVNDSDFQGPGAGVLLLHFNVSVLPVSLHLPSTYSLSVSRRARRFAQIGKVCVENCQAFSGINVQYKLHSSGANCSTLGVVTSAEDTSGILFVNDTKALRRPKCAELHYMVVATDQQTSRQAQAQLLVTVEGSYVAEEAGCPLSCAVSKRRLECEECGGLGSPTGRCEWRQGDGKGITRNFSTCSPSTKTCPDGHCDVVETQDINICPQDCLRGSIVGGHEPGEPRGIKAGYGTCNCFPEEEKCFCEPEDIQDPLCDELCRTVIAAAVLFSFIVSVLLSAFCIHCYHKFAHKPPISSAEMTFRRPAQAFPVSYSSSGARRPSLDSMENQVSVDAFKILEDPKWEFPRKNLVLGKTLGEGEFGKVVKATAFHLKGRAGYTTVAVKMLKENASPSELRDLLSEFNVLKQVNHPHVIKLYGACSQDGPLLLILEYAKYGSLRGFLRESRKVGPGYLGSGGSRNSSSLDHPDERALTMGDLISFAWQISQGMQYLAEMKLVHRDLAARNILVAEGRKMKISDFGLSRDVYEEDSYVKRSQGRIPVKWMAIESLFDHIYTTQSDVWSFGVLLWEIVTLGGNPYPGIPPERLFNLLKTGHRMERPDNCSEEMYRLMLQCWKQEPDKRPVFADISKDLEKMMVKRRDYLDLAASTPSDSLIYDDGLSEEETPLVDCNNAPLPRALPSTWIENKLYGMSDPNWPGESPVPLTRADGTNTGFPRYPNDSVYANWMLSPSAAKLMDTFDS
UniProt P07949, 29-1114 V804M: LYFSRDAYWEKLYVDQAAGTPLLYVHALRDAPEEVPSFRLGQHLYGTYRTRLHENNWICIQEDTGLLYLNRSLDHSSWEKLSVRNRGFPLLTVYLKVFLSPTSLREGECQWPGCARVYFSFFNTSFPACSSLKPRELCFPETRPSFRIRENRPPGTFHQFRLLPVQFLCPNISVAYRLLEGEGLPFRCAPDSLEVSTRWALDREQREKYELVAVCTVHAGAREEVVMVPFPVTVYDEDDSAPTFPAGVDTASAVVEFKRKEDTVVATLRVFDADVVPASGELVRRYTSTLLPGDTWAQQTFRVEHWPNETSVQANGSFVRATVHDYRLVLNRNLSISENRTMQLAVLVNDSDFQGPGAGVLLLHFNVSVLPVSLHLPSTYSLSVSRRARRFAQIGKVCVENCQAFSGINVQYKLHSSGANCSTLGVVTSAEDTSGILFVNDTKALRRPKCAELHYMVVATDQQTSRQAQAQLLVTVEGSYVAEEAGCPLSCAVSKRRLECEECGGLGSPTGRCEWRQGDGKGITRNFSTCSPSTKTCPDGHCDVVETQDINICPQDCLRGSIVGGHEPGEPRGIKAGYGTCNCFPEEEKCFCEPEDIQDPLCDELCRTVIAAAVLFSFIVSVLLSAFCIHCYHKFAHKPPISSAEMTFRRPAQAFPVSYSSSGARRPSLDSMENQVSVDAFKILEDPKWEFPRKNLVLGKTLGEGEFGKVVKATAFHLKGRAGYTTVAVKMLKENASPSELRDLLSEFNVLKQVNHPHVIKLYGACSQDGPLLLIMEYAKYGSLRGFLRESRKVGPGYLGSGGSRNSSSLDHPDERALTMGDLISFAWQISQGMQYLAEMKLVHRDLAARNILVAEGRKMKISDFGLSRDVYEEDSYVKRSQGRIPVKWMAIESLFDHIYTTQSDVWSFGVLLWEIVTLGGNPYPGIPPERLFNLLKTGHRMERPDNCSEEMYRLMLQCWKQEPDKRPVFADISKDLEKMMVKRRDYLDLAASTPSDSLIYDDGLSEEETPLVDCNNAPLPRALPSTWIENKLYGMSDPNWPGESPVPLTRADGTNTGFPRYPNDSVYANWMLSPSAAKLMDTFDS

In test [1] the test system is RET/E768D, RET/L790F, RET/V804L, RET/V804M, RET/A883F, RET/S891A. The conditions noted are these: RAT1 cells, 2 hr, compared with RET/C634R and RET/M918T.
Test [2] concerns the target RET/E768D, RET/L790F, RET/V804L, RET/V804M, RET/A883F, RET/S891A (Homo sapiens, UniProt P07949, A883F). The conditions noted are these: A883F, RET activation loop.
Test [3] deals with T1, RET/V804L (Homo sapiens, UniProt P07949, V804L).
T1 construct: purchased Invitrogen (SelectScreen service)
The test can be described thus: Invitrogen SelectScreen in vitro kinase assay, RET/V804L. The conditions noted are these: read-out: in vitro IC50 dose: RET (V804L). The test is classed as biochemical. The text has this:
(§1) Fig 2 ALW-II-41-27, HG-6-63-01 and XMD15-44 chemical structure. A) Chemical structure of the studied compounds: red colour indicates the “tail”, black colour indicates “linker”, and pink colour indicates the “head” part in the binding. B) Modelling of ALW-II-41-27 (left), XMD15-44 (middle) and HG-6-63-01(right) binding to the DFG-out conformation of RET.
(§2) Though more rarely than C634 and M918 mutations, other mutations targeting RET residues in the tyrosine kinase domain can cause familial or sporadic MTC [1, 2]. […] Of note, RET A883 residue is located in the VI Hanks domain adjacent to RET activation loop and it corresponds to G372 residue in ABL kinase whose mutation has been isolated in imatinib-resistant patients.

Test [4] has as its target T2, RET/V804M (Homo sapiens, UniProt P07949, V804M).
T2 construct: purchased Invitrogen (SelectScreen service)
The test can be described thus: Invitrogen SelectScreen in vitro kinase assay, RET/V804M. It counts as biochemical. The conditions noted are these: read-out: in vitro IC50 dose: RET (V804M).
Description: as §1, §2

The test system of test [5] is RAT RET/C634R cells. It counts as cell-based. The conditions noted are these: bound stated for RET/C634R or RET/M918T, read-out: IC50 of proliferation of RAT1 expressing RET/C634R. As for the experimental part:
(§3) To compare cell growth, we performed unpaired Student’s t test using the Instat software program (Graphpad Software Inc). P values were two-sided, and differences were considered statistically significant at P <.02. IC50 doses were calculated through a curve fitting analysis from last day values using the PRISM software program (Graphpad Software Inc).

Test [6] addresses T3, KinomeScan kinase panel (Homo sapiens, UniProt P07949, V804L).
T3 construct: purchased DiscoveRx (KinomeScan)
The test can be described thus: KinomeScan kinase panel, single concentration 10 µM. It counts as binding. The conditions noted are these: read-out: score (%).

Test [7] addresses T4, KinomeScan kinase panel (Homo sapiens, UniProt P07949, V804M).
T4 construct: purchased DiscoveRx (KinomeScan)
The test is described as above. The conditions noted are these: read-out: score (%). The test is classed as binding.

Test [8] relates to RAT RET/M918T cells. Nature of the test: Growth curves, RAT1 cells transformed by RET/M918T. It counts as cell-based. The conditions noted are these: bound stated for RET/C634R or RET/M918T, read-out: IC50 of proliferation of RAT1 expressing RET/M918T. Here is the method: as §3
Test [9] has as its system RET V804M/L. The conditions noted are these: cited from earlier work.

Like-named read-outs stand apart in the source and are kept apart here.

Take `CCN1CCN(Cc2ccc(NC(=O)c3ccc(C)c(/C=C/c4cnc5[nH]ccc5c4Cl)c3)cc2C(F)(F)F)CC1` [HG-6-63-01, (E)-3-(2-(4-chloro-1H-pyrrolo[2,3-b]pyridin-5-yl)vinyl)-N-(4-((4-ethylpiperazin-1-yl)methyl)-3-(trifluoromethyl)phenyl)-4-methylbenzamide]: the “sensitivity of RET/L790F, RET/V804M and RET/S891A phosphorylation” value (shortened to “sensitivity of RET/L790F”) in test [1] is “comparable to that of RET/C634R and RET/M918T proteins”. The “RET inhibitory effect with A883F mutation” value (“RET inhibitory effect” below) in test [2] is on record as “impaired”. Further, the IC50 was 329 nM in test [3], 33.3 nM in [4], at most 56 nM in [5] and at most 56 nM in [8]. Further, the remaining binding at 10 µM is 0% in [6] (RET(V804L), 10 µM) and 0% in test [7] (RET(V804M), 10 µM).
On to `CCN1CCN(Cc2ccc(NC(=O)c3ccc(C)c(NC(=O)c4cncc(-c5cccs5)c4)c3)cc2C(F)(F)F)CC1` [ALW-II-41-27], for which the “sensitivity of RET/L790F” value in test [1] was “comparable to that of RET/C634R and RET/M918T proteins”. Also, the “RET inhibitory effect” value in [2] is “impaired”. For the same compound, the IC50 in test [3] was 94.2 nM; in test [4], 15.8 nM; in test [5], at most 56 nM; in test [8], at most 56 nM. Besides, the remaining binding at 10 µM in [6] and in [7] was 0% in each case.
For `COc1cc2c(Nc3ccc(Br)cc3F)ncnc2cc1OCC1CCN(C)CC1` [vandetanib], the “fold increase of in vitro IC50 dose for RET by V804M/L” value in [9] is on record as 50 fold.
Turning to `COc1cc2nccc(Oc3ccc(NC(=O)C4(C(=O)Nc5ccc(F)cc5)CC4)cc3)c2cc1OC` [cabozantinib], the “effect of RET V804M on drug sensitivity” value in test [9] (V804M) is “resistance”.
With `CCN1CCN(Cc2ccc(NC(=O)c3ccc(C)c(C#Cc4cccnc4)c3)cc2C(F)(F)F)CC1` [XMD15-44], in test [1], the “sensitivity of RET/L790F” value was “comparable to that of RET/C634R and RET/M918T proteins”. Besides, the “RET inhibitory effect” value in test [2] is recorded as “impaired”. Besides, the IC50 was 99.3 nM in test [3], 11.9 nM in [4], at most 56 nM in test [5] and at most 56 nM in [8]. For the same compound, the remaining binding at 10 µM in test [6] (kinase RET(V804L), 10 µM) is 0%; in [7] (kinase RET(V804M), 10 µM), 0%.
